These results are taken from patent US20040138160A1, “Preventive/therapeutic method for cancer” (priority 2001, published 2004).

This experiment concerns HER2 high expression human breast cancer cell BT-474. Nature of the experiment: Anti-tumor effect, combined use (BT-474 cancer-bearing nude mice). The class given is in vivo, mouse. The following applies: compound B4 20 mg/kg/day orally, divided into two per day, 14 days, trastuzumab 10 mg/kg intraperitoneally twice a week, 2 weeks, or both. An excerpt:
Formula: Tumor volume=longer diameter×shorter diameter×shorter diameter×(1/2)

Turning to trastuzumab [reference compound], the “growth rate T/C (%)” value is −17%.
